These are literature values, as cited in patent publication US20220089531A1, “NEW SALICYLIC ACID DERIVATIVES, PHARMACEUTICALLY ACCEPTABLE SALT THEREOF, COMPOSITION THEREOF AND METHOD OF USE THEREOF” (THE GOVERNING COUNCIL OF THE UNIVERSITY OF TORONTO, priority 2018, published 2022).

Sequences of proteins named here, by UniProt entry; tags and fusion partners are left off.
UniProt P40763, whole entry: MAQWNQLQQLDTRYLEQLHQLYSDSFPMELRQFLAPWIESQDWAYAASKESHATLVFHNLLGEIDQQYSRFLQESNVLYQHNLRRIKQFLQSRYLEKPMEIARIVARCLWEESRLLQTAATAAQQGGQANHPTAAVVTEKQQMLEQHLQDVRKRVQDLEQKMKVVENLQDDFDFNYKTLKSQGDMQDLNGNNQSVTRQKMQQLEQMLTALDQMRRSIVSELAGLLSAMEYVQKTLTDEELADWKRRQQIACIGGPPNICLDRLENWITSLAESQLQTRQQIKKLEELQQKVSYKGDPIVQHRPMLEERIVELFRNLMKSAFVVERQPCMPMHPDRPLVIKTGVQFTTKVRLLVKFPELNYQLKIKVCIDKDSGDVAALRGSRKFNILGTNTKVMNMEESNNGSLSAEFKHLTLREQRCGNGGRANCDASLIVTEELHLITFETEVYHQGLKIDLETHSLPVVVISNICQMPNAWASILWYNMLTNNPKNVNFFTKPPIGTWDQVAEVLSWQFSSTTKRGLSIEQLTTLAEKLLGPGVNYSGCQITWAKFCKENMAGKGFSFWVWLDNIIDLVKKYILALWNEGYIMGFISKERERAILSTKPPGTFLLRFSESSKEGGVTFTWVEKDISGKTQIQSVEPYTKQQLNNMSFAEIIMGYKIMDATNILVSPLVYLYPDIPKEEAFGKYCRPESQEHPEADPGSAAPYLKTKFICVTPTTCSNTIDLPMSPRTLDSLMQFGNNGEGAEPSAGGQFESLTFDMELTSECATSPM

The target in this data set is STAT3 (Homo sapiens, UniProt P40763). The conditions noted are these: STAT3 versus 93% homologous STAT1; cited from earlier work.

With BP-1-102, the “selectivity for STAT3: fold less binding to STAT1” value is listed as “over 10 fold”.
